Measurements: ChEMBL document CHEMBL1134364, “Antipsoriatic anthrones with modulated redox properties. 5. Potent inhibition of human keratinocyte growth, induction of keratinocyte differentiation, and reduced membrane damage by novel 10-arylacetyl-1,8-dihydroxy-9(10H)-anthracenones” (J Med Chem, 2001)

Assay: Deoxyribose degradation activity was measured as hydroxyl radical formation; note: unit not given here

## COc1ccc(CC(=O)C2c3cccc(O)c3C(=O)c3c(O)cccc32)cc1
  Activity: < 0.3
